The source of these data is publication PMC7641332 (Nucleic Acids Research, 2020).

The target in the assay is GST-BRCA2-FLAG-His10 (GST-tagged full-length BRCA2) (human, UniProt P51587 1-3418). Kind of assay: pull-down.

B1: 2× MBP-BRCA2NT-FLAG-His10 (domain or fragment)
chain: MPIGSKERPTFFEIFKTRCNKADLGPISLNWFEELSSEAPPYNSEPAEESEHKNNNYEPNLFKTPQRKPSYNQLASTPIIFKEQGLTLPLYQSPVKELDKFKLDLGRNVPNSRHKSLRTVKTKMDQADDVSCPLLNSCLSESPVVLQCTHVTPQRDKSVVCGSLFHTPKFVKGRQTPKHISESLGAEVDPDMSWSSSLATPPTLSSTVLIVRNEEASETVFPHDTTANVKSYFSNHDESLKKNDRFIASVTDSENTNQREAASHGFGKTSGNSFKVNSCKDHIGKSMPNVLEDEVYETVVDTSEEDSFSLCFSKCRTKNLQKVRTSKTRKKIFHEANADECEKSKNQVKEKYSFVSEVEPNDTDPLDSNVANQKPFESGSDKISKEVVPSLACEWSQLTLSGLNGAQMEKIPLLHISSCDQNISEKDLLDTENKRKKDFLTSENSLPRISSLPKSEKPLNEETVVNKRDEEQHLESHTDCILAVKQAISGTSPVASSFQGIKKSIFRIRESPKETFNASFSGHMTDPNFKKETEASESGLEIHTVCSQKEDSLCPNLIDNGSWPATTTQNSVALKNAGLISTLKKKTNKFIYAIHDETSYKGKKIPKDQKSELINCSAQFEANAFEAPLTFANADSGLLHSSVKRSCSQNDSEEPTLSLTSSFGTILRKCSRNETCSNNTVISQDLDYKEAKCNKEKLQLFITPEADSLSCLQE
For B1, the binding result was “binds”.
